Reference: patent publication US20050119253A1, “Method of treating mental disorders using of D4 and 5-HT2A antagonists, inverse agonists or partial agonists” (priority 2003, published 2005)
Read-outs that look alike come from different tables or passages of the source. Each block holds one compound with its values, some of them ahead of it.

The chains behind the UniProt entries cited, without tags or fusion partners. Residues count along the entry.
UniProt P28221, whole entry, species assumed: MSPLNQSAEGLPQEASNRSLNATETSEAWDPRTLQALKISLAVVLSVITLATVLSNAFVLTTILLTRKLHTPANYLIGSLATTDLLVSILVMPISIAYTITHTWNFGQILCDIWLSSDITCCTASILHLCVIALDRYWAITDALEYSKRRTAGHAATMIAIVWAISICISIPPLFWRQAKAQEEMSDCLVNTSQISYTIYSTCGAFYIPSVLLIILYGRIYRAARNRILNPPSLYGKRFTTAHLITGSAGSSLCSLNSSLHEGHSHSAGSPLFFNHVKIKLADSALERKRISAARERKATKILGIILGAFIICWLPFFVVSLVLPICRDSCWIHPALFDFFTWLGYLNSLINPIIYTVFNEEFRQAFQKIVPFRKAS
UniProt P28222, whole entry, species assumed: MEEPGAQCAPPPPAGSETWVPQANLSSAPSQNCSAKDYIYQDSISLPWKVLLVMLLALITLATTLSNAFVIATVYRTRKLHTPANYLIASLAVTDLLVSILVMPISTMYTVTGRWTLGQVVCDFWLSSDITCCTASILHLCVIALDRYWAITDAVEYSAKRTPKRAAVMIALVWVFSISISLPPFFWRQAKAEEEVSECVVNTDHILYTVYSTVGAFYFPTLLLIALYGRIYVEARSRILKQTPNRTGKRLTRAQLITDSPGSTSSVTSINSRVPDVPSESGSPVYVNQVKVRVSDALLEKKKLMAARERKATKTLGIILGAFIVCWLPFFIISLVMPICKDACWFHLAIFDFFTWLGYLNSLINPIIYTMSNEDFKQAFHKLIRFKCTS
UniProt P28566, whole entry, species assumed: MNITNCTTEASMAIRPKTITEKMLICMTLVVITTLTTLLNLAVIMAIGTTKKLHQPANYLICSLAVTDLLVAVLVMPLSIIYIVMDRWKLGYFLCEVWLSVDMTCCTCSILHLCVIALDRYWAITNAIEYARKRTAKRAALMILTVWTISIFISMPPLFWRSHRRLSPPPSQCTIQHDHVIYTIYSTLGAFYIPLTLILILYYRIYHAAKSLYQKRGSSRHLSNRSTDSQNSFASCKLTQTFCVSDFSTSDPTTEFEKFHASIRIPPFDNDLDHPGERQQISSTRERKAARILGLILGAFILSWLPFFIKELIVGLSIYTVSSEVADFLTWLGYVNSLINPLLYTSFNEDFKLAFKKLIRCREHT
UniProt P14416, whole entry: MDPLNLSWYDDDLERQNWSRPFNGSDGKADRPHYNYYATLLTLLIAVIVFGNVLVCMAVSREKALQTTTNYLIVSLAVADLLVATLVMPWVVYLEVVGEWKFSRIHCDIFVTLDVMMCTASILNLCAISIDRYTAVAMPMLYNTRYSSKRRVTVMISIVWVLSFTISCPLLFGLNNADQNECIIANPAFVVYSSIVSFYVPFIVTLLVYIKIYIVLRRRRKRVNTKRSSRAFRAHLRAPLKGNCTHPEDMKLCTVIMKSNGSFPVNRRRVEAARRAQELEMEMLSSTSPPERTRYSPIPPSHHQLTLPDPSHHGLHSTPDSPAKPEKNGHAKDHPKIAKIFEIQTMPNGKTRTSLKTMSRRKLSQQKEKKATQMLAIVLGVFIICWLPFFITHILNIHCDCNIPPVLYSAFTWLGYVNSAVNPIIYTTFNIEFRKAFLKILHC
UniProt P18089, whole entry: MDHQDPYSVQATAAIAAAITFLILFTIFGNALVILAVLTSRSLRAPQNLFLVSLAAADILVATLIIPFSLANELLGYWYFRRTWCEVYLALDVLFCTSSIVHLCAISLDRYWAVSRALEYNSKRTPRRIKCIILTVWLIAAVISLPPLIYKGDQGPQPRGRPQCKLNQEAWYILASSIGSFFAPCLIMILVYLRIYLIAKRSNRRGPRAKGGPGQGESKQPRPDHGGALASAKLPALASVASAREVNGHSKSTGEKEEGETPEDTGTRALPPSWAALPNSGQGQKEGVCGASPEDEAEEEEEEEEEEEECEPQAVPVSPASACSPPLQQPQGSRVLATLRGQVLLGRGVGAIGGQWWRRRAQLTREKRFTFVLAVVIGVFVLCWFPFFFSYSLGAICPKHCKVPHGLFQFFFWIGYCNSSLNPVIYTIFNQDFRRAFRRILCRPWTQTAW
UniProt P07550, whole entry: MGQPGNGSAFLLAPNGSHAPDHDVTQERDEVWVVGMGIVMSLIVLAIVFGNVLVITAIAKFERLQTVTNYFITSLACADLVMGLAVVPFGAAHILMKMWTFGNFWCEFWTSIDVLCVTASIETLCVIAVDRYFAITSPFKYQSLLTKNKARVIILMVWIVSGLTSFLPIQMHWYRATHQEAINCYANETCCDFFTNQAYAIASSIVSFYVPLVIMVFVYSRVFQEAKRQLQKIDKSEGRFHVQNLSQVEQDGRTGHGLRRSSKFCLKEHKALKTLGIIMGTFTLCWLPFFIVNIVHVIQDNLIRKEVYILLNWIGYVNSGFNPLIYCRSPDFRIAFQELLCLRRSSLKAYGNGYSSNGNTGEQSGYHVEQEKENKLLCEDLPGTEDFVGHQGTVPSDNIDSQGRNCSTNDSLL
UniProt P08913, whole entry: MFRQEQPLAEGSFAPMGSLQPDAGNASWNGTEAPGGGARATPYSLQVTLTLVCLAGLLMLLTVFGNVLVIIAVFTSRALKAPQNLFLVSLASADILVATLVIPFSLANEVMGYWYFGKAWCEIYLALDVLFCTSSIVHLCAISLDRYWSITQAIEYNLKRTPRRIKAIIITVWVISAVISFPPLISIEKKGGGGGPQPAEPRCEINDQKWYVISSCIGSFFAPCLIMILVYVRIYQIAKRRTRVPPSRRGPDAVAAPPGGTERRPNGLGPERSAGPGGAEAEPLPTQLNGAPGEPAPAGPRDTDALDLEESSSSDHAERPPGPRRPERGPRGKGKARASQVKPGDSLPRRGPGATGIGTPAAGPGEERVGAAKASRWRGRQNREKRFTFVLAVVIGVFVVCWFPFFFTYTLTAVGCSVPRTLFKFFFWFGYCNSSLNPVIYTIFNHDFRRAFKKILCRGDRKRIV
UniProt P21728, whole entry: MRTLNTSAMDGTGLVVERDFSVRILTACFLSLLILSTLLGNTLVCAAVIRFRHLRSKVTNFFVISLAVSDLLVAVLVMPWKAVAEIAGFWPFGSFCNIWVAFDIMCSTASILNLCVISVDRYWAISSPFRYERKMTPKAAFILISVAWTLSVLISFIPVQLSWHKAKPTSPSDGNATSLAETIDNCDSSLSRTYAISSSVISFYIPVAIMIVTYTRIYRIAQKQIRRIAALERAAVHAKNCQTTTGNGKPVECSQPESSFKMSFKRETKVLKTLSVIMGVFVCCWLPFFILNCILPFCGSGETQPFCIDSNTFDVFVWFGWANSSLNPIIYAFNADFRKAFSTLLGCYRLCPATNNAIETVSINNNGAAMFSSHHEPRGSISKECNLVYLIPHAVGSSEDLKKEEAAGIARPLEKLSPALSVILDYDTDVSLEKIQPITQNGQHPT
UniProt P08908, whole entry, species assumed: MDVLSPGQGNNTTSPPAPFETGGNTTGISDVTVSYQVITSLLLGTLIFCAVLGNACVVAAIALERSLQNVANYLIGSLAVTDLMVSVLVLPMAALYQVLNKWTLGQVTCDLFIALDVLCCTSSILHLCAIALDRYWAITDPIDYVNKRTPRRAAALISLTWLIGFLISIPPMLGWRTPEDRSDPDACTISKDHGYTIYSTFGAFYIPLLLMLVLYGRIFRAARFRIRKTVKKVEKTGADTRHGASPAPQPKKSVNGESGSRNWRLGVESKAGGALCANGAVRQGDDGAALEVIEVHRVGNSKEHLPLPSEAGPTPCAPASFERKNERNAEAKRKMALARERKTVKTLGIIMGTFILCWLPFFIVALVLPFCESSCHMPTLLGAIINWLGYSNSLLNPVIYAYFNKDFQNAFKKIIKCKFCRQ
UniProt P28335, 33-458, species assumed: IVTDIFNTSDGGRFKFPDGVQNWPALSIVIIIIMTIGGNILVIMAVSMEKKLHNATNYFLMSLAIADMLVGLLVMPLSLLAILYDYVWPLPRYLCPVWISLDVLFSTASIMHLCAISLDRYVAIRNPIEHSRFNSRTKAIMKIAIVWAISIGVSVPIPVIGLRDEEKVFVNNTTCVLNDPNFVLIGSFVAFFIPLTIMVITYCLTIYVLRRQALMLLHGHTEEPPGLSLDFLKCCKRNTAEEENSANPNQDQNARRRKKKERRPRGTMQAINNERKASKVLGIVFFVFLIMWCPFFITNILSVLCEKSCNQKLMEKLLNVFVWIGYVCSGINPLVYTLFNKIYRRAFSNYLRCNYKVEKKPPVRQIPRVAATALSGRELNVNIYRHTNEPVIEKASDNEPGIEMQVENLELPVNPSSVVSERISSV
UniProt P18825, whole entry: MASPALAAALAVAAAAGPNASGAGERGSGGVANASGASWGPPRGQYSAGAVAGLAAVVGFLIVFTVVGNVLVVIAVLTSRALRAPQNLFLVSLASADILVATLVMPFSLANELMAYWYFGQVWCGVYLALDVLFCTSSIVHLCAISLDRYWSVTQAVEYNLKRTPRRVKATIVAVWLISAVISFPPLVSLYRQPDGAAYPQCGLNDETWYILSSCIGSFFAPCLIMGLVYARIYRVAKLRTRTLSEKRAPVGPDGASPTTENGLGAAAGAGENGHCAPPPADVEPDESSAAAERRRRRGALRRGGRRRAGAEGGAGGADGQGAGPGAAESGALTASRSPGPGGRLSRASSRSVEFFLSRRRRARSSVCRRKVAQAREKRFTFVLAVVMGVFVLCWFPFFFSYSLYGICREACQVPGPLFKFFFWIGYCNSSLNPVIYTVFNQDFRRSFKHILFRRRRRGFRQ
UniProt P35367, whole entry: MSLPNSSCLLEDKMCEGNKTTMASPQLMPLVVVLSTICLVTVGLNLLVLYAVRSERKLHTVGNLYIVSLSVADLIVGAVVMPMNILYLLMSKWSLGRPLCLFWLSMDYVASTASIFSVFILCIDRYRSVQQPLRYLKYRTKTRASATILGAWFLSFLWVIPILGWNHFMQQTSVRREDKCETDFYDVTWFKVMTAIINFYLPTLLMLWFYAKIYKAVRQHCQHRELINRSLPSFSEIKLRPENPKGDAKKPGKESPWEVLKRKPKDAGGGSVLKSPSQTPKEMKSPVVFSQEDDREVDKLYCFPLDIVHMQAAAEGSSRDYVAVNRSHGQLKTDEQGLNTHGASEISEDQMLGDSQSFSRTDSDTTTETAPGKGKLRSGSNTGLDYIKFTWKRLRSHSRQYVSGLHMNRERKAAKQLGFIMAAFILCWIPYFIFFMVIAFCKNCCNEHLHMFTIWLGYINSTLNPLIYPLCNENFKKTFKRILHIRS

Columns and labels:
5HT1D = 5HT1D (Homo sapiens, UniProt P28221); test: pKi of test compounds, 5HT1D receptor; format: binding
5HT1B = 5HT1B (Homo sapiens, UniProt P28222); test: pKi of test compounds, 5HT1B receptor; format: binding
5HT1E = 5HT1E (Homo sapiens, UniProt P28566); test: pKi of test compounds, 5HT1E receptor; format: binding
Alpha1A = target: T1, Alpha1A (Homo sapiens, UniProt P35348); test: pKi of test compounds, adrenergic receptor Alpha1A; format: binding
T1 sequence (P35348 1-466): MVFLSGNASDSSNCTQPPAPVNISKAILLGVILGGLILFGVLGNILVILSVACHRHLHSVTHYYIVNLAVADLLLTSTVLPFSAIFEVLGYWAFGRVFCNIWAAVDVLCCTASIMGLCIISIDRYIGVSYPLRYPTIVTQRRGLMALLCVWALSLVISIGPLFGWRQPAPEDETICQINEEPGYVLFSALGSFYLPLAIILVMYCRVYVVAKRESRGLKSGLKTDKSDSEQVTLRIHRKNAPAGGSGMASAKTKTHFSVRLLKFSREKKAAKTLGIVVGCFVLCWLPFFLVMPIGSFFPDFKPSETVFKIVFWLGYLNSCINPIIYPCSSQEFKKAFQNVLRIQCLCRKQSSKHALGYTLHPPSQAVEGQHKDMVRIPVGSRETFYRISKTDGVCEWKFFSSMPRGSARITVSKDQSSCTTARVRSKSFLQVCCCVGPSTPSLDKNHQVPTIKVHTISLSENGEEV

D2 = D2 (Homo sapiens, UniProt P14416); test: pKi of test compounds, D2 receptor
5HT1F = target: T2, 5HT1F (Homo sapiens, UniProt P30939); test: pKi of test compounds, 5HT1F receptor; format: binding
T2 sequence (P30939 1-366): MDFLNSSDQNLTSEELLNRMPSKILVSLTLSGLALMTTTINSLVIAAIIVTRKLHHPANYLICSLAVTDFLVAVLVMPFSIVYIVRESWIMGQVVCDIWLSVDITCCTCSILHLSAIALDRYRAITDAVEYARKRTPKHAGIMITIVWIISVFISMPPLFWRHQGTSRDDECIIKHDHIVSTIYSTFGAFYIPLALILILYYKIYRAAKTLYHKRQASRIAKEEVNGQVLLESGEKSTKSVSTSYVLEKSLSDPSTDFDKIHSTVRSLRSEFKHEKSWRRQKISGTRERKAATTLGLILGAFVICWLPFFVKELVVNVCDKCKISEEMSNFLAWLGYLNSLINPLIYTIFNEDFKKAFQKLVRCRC

Alpha2B = Alpha2B (Homo sapiens, UniProt P18089); test: pKi of test compounds, adrenergic receptor Alpha2B
Beta2 = Beta2 (Homo sapiens, UniProt P07550); test: pKi of test compounds, adrenergic receptor Beta2; format: binding
Alpha2A = Alpha2A (Homo sapiens, UniProt P08913); test: pKi of test compounds, adrenergic receptor Alpha2A; format: binding
D1 = D1 (Homo sapiens, UniProt P21728); test: pKi of test compounds, D1 receptor; format: binding
5HT1A = 5HT1A (Homo sapiens, UniProt P08908); test: pKi of test compounds, 5HT1A receptor; format: binding
5HT2C = 5HT2C (Homo sapiens, UniProt P28335); test: pKi of test compounds, 5HT2C receptor; format: binding
Alpha2C = Alpha2C (Homo sapiens, UniProt P18825); test: pKi of test compounds, adrenergic receptor Alpha2C; format: binding
H1 = H1 (Homo sapiens, UniProt P35367); test: pKi of test compounds, histamine receptor H1

Compound: Fc1cccc2c1O[C@H]1CNC[C@@H]1O2 [Fluparoxan]
- Ki (5HT1D): > 1000 nM
- Ki (5HT1B; read-out: pKi 5HT1B (converted)): > 1000 nM

- Ki (5HT1E): > 1000 nM
Compound: O=C(CCCN1CCC(O)(c2ccc(Cl)cc2)CC1)c1ccc(F)cc1 [Haloperidol]

Compound: Cc1cc2c(s1)Nc1ccccc1N=C2N1CCN(C)CC1 [Olanzapine]
- Ki (Alpha1A): 10 to 100 nM

- Ki (D2): 1 to 10 nM
Compound: CCN1CCC[C@H]1CNC(=O)c1c(O)c(Cl)cc(Cl)c1OC [Raciopride]

Compound: Cc1nc2n(c(=O)c1CCN1CCC(c3noc4cc(F)ccc34)CC1)CCCC2 [Risperidone]
- Ki (5HT1E): > 1000 nM
- Ki (5HT1F): > 1000 nM

- Ki (5HT1D): > 1000 nM
- Ki (5HT1F): > 1000 nM
Compound: OCCOCCN1CCN(C2=Nc3ccccc3Sc3ccccc32)CC1 [Seroquel]

Compound: O=C1NCCN1CCN1CCC(c2cn(-c3ccc(F)cc3)c3ccc(Cl)cc23)CC1 [Sertindole]
- Ki (Alpha2B): 100 to 1000 nM
- Ki (Beta2): > 1000 nM
- Ki (Alpha2A): 100 to 1000 nM

- Ki (D1): 10 to 100 nM
Compound: O=C1CC2(CCCC2)CC(=O)N1CCCCN1CCN(c2nsc3ccccc23)CC1 [Tiospirone]

Compound: COC(=O)[C@@H]1[C@H]2C[C@H]3c4[nH]c5ccccc5c4CCN3C[C@@H]2CC[C@@H]1O [Yohimbine]
- Ki (5HT1A): 10 to 100 nM
- Ki (5HT2C): > 1000 nM
- Ki (5HT1B): 100 to 1000 nM

Compound: O=C1Cc2cc(CCN3CCN(c4nsc5ccccc45)CC3)c(Cl)cc2N1 [Ziprasidone]
- Ki (Alpha2A): 100 to 1000 nM

Compound: CN(C)CCOC1=Cc2ccccc2Sc2ccc(Cl)cc21 [Zotepine]
- Ki (Alpha2C): 100 to 1000 nM
- Ki (H1): < 1 nM
- Ki (Alpha2A): 100 to 1000 nM
